# AlphaSeq binding of Ab-14 heavy chain variants to a spike HR2 peptide

Data: MIT Lincoln Laboratory AlphaSeq set, Li et al. 2023, doi:10.1038/s41467-023-39022-2, as distributed in FLAb.

Target: peptide PDVDLGDISGINAS, taken from heptad repeat 2 (HR2) of SARS-CoV-2 spike.

Parent scFv Ab-14: VH joined to VL by a (GGGGS)3 linker. Changes lie in the heavy chain CDRs alone.
VH: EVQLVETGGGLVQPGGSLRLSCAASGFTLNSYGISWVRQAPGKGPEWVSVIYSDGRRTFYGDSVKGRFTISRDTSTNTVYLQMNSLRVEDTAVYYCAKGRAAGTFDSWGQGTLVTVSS
VL: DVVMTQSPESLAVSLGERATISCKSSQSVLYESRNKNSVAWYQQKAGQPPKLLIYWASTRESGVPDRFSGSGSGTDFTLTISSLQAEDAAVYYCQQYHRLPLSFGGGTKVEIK

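Phage display of a naive human antibody library on the peptide gave the parent. Designed CDR sequences, proposed from the first random library and measured here. Several design methods are mixed in this list. In AlphaSeq, yeast of one mating type display the scFv and yeast of the other type display the target. The frequency of each diploid, read from paired DNA barcodes, reflects how well the two displayed proteins bind. A regression on co-assayed BCL2-family reference pairs converts the normalised counts of each replicate to an apparent Kd. Mating was done six times.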

The parent's heavy chain CDRs are GFTLNSYGIS, VIYSDGRRTFYGDSVK, GRAAGTFDS; each variant's own CDRs replace them letter for letter.
Scale: log10 of Kd in nM, estimated from mating counts; low values are strong binders.
Averages over replicates are reported, and they cover detected replicates only.
"not detected" means that the variant was in the library but no mating with the target was seen in any replicate; the authors take this as a sign of poor binding, and no number exists.
A sequence measured in both rounds can read differently, since the two assays cover different ranges.
Background: pairings of all heavy chain designs with three empty control strains gave a value in 1% of cases (median 2.08, 5th percentile 0.84). Values in that range, when seen in few replicates, are hard to tell from nonspecific mating. Also given: how often the same scFv was detected with the empty control strains.
The authors' rule: three or more of the six replicates give a measured affinity, fewer mean a poor binder.

CDR-H1,CDR-H2,CDR-H3,"log10 Kd (nM), mean",seen in,signal with controls
GFDLNSYGIS,VIYSDGRRTFYADEVK,GKAAGTFDS,-0.03,6/6,0/18
GFELNSYGIS,VIYSDGRRTFYGDSVK,GKTAGTFDD,0.79,6/6,0/18
GFDLNEYGIS,VIYADGRRTAYTDSVK,GHAAGTFVL,0.74,6/6,0/18
GFNLDEYGIS,VIYADGMRTAYADDVK,GEVAGTFDV,-0.74,6/6,0/18
GFSLNSYGIS,VIYSDGRRTFYEDSVK,GRAAGTFDS,0.79,6/6,1/18
GFDLDEYGIS,VIYADGVRTAYSDSVK,GENAGTFDL,0.15,6/6,0/18
GFDLDSYGIS,VIYADGRRSAYHDSVK,GQNGSVSFV,not detected,0/6,0/18
GFDLDEYGIS,VIYADGKRTAYADDVK,GNVAGTFDI,-0.34,6/6,0/18
GFDLNEYGIS,VIYADGMRTAYADTVK,GNTAGTFDV,-0.43,6/6,0/18
GFTLNEYGIS,VIYSDGRRTFYGDSVK,GKTAGTFIS,not detected,0/6,0/18
GFSLNSYGIS,VIYSDGRRTFYADSVK,GHAAGTFDL,0.49,6/6,0/18
GFTLNSYGIS,VIYSDGVRTFYHDSVK,GRAAGTFDY,not detected,0/6,1/18
GFTLNSYGIS,VIYSDGRRTFYTDSVK,GMWAGTFDS,0.92,1/6,0/18
GFDLNSYGIS,VIYSDGRRTFYGDSVK,GHAAGTFDK,0.66,5/6,0/18
GFDLDEYGIS,VIYADGRRTFYTDSVK,GEVAGTFDV,-0.16,6/6,0/18
GFTLNSYGIS,VIYSDGIRTGYGDSVK,GKAAGTFDS,1.25,6/6,1/18
GFDINEYGIS,VIYADGKRMAYANKVK,GLMAGTVID,2.50,1/6,0/18
GFVLNEYGIS,VIYSDGRRTFYGDSVK,GRQAGTFDS,not detected,0/6,0/18
GFERNSYGIS,VIYSDGRRTWYADSVK,GRAAGTFDS,not detected,0/6,0/18
GTTLNSYGIS,VIYSDGRRTFYGDSVR,GRAAGTFDS,1.57,1/6,0/18
GFDLEEYGVS,VIYADGQRAFYTDSVK,GKGAGIALI,not detected,0/6,0/18
GFDLNEYGIS,VIYADGMRTAYADKVK,GGNAGTFDV,-0.41,6/6,0/18
GFDIEEYGIS,VIYADGMRQAYLDKVK,GNNGSSGLF,4.79,1/6,0/18
GFWLNEYGIS,VIYSDGRRTFYQDSVK,GRTAGTFDS,0.75,6/6,1/18
GFTLNDYGIS,VIYSDGRRTFYIDSVK,GRQAGTFDS,0.54,6/6,0/18
GFTLNSYGIS,VIYSDGRVTFYDDSVK,GQLAGTFDS,not detected,0/6,0/18
GFDLNEYGIS,VIYADGRRTFYTDSVK,GGNAGTFDL,-0.82,6/6,0/18
GFTLNEYGIS,VIYSDGRRTFYGDSVK,GRAAGTFEL,0.98,6/6,1/18
GFDLNEYGIS,VIYADGKRTAYSDSVK,GNVAGTFDT,-0.14,6/6,1/18
GFTLNSYGIS,VIYSDGRRTFMGDSVK,GRAAVTFDS,not detected,0/6,0/18
GFSLNSYGIS,VIYSDGRRTFYSDNVK,GEAAGTFDS,0.24,6/6,0/18
GEDLNEYGVS,VIYADGIRSTYADKFK,GKHGAAFFV,not detected,0/6,1/18
GFELNEYGIS,VIYSDGKRTFYGDSVK,GRQAGTFDS,0.24,6/6,0/18
GESLESYGIS,VIYADGMRTSYTNSVK,GVWAGTFML,not detected,0/6,0/18
GFTLNSYGIS,VIYSDGRRTFYGDSVK,IRHAGAFDD,not detected,0/6,2/18
GFDLNEYGIS,VIYADGSRTAYADSVK,GQNAGTFDV,-0.22,6/6,0/18
GFTLEDYGIS,VIYSDGRRTFYGDSVK,GRAAGIFDS,not detected,0/6,1/18
GFQLNSYGIS,VIYSDGRRTFYQDSVK,GHAAGTFDS,1.79,5/6,0/18
KFQLNEYGIS,VIYSDGRRTFYGDSVK,GRTAGTFDS,0.89,5/6,0/18
GFTLENYGIS,VIYSDGRRTFYGDSVK,GRAAGTFDS,0.41,6/6,0/18
GFTLESYGIS,VIYADGRRTFYGDQVK,GRAAGTFKS,1.56,6/6,1/18
GFQLNEYGIS,VIYSDGRRTFYGDSVK,GREAGTFDS,-0.20,6/6,0/18
GFTLNSYGIS,VIYSDGRRTHYYDSVK,GRAAGTFDS,not detected,0/6,0/18
GFTLNSYGIS,VIYSDGRRTFYTDSVK,GPLAGTFNS,2.14,1/6,0/18
GFTLGSYGIS,VIYSDGRRTFYGDSVK,ERNSGTFVS,not detected,0/6,0/18
GFTLNSYGIS,VIYSDGRRTAYLDSVK,GRGAGTADS,2.59,1/6,0/18
GFDLNEYGIS,VIYADGLRTFYSDSVK,GEFAGTFDV,-0.24,6/6,0/18
GFDLNEYGIS,VIYADGRRTYYADSVK,GNLAGTFDQ,-0.48,6/6,0/18
GFSLNEYGIS,VIYSDGRRTFYTDSVK,GKAAGTFDS,0.05,6/6,1/18
GYDIEEYGIS,VIYADGKKNAFANSFK,GEWAGTFDD,not detected,0/6,0/18
GFTLNSYGIS,VIYSDGRRTFYADSVK,GRAAGTFDS,1.12,6/6,1/18
GFDINEYGIS,VIYADGMRSYYDDKVK,GSNGDLLEV,not detected,0/6,0/18
GFSLNEYGIS,VIYSDGRRTFYMDDVK,GRTAGTFDS,-0.24,6/6,0/18
GFNLDEYGIS,VIYADGQRVAYANNVK,GKNGAFFSN,not detected,0/6,0/18
GFTLNSYGIS,VIYSDGRRTFYSDAVR,GKAAGTFKS,1.45,6/6,1/18
GETIQSYGIS,VIYSDGLRVFYGDSVK,GKHAGTFDS,not detected,0/6,0/18
GFTLNEYGIS,VIYSDGRRTFYTDSMK,GRFAGTFDS,not detected,0/6,0/18
GFNLEDYGIS,VIYADGMRTFYVDSVK,GKVAGTFDV,0.08,6/6,0/18
GFDLNEYGIS,VIYADGRRTFYIDSVK,GQNAGTFDV,-0.40,6/6,0/18
GFTLDSYGIS,VIYSDGRRTFYGDSVK,GRAAGTFSS,not detected,0/6,0/18

Repeated from above, the 8 best binders with a signal in all replicates:

CDR-H1,CDR-H2,CDR-H3,"log10 Kd (nM), mean",seen in,signal with controls
GFDLNEYGIS,VIYADGRRTFYTDSVK,GGNAGTFDL,-0.82,6/6,0/18
GFNLDEYGIS,VIYADGMRTAYADDVK,GEVAGTFDV,-0.74,6/6,0/18
GFDLNEYGIS,VIYADGRRTYYADSVK,GNLAGTFDQ,-0.48,6/6,0/18
GFDLNEYGIS,VIYADGMRTAYADTVK,GNTAGTFDV,-0.43,6/6,0/18
GFDLNEYGIS,VIYADGMRTAYADKVK,GGNAGTFDV,-0.41,6/6,0/18
GFDLNEYGIS,VIYADGRRTFYIDSVK,GQNAGTFDV,-0.40,6/6,0/18
GFDLDEYGIS,VIYADGKRTAYADDVK,GNVAGTFDI,-0.34,6/6,0/18
GFSLNEYGIS,VIYSDGRRTFYMDDVK,GRTAGTFDS,-0.24,6/6,0/18